High-throughput results: PubChem, Broad Institute
Casp6 inh: caspase-6 (human) enzyme inhibition. purified caspase-6, Z-VEID-R110 cleavage fluorescence. inhibition, % at 12.5 µM. 0.53% of 350,000 active;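 active = mean inhibition across replicates at least about 35%, with every replicate also reaching that limit, limit read from the data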
PglD inh: inhibitors of Campylobacter jejuni PglD acetyltransferase. purified PglD enzyme, DTNB colorimetric CoA detection. inhibition, % at 12.5 µM. 0.098% of 360,000 active. AID 602405; in the data active = inhibition above about 16%, passing the limit was not always enough
RAD52 inh: RAD52 (human) annealing inhibition; recombinant RAD52 DNA annealing, FRET fluorescence; 0.46% of 360,000 active; inhibition, % at 18.7 µM; P43351;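 active = every replicate showing at least 50% inhibition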
GSIS activator: GLuc luminescence reporter in INS-1E cells, primary screen for activators of glucose-dependent secretion of insulin. INS-1E GLuc reporter insulin secretion, 2-3 h. activation, % at 16.6 µM. 0.61% of 370,000 active. AID 743287;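 active = lowest replicate activation of at least 40%, so every replicate reaches that level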
Yeast UUG start: modulators of start codon recognition fidelity in yeast; AID 602363; hit rate 0.13% among 350,000; activity score, % at 18.7 µM; S. cerevisiae UUG-firefly luciferase reporter, luminescence/redox ratio;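 active = replicate mean at a twofold rise or more, about +100% in these data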;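 note: firefly luciferase made from a UUG start codon reports start codon fidelity; reporter light over untreated wells divided by growth signal over untreated wells; some hits fall short of that in this replicate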
RAD54 branch: inhibitors of human RAD54 branch migration. Q92698. RAD54 Holliday junction branch migration, FAM/BHQ fluorescence. inhibition, % at 10.4 µM. 0.14% of 360,000 active. AID 602329;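 active = mean normalized replicate activity at least 40 and at least half of replicates scoring 40 or more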;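 note: inhibitors cause a drop in the FAM fluorescence signal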
Of the large screens only hits and unclear results are named; the others gave an inactive call; ! = not confirmed by another sample. Compounds with a hit are over-represented: about 1.5% of the library has one in this group of screens.

O=C(Nc1cc(Cl)cc(Cl)c1)c1coc(=O)c(Br)c1	Casp6 inh 70
C[C@@H]1CN([C@H](C)CO)C(=O)Cc2cc(NC(=O)CCC(F)(F)F)ccc2O[C@H]1CN(C)C(=O)Nc1ccccc1	none
O=C(O)C(=Cc1ccccc1)Cc1ccccc1	GSIS activator 41
O=C(NCc1ccncc1)Nc1ccccc1Cl	none (no result: Casp6 inh, RAD52 inh)
CCOC(=O)CC1C(=O)NCCN1S(=O)(=O)c1cccc(C(F)(F)F)c1 (configuration not stated)	Casp6 inh 42
C=CCc1ccc(OCCOc2ccc(/C=N/n3cnnc3)cc2OCC)c(OC)c1	GSIS activator 61 (no result: Casp6 inh, RAD52 inh)
COc1cc(/C=N/n2cnnc2)ccc1OCCOc1ccccc1	none (no result: Casp6 inh, PglD inh, RAD52 inh, GSIS activator)
Cc1cc(C(=O)CN2C(=O)NC3(CCCCC3)C2=O)c(C)n1Cc1ccc2c(c1)OCO2	none (no result: Casp6 inh, RAD52 inh, GSIS activator)
COc1ccc(-c2ccc(SCC(=O)N3CCOCC3)nn2)cc1OC	GSIS activator 84 (no result: Casp6 inh, RAD52 inh)
COc1ccc(-c2ccc(SCC(=O)c3ccc(F)cc3)nn2)cc1OC	none
COc1ccc(-c2ccc(SCC(=O)c3cccs3)nn2)cc1OC	GSIS activator 43 (no result: PglD inh, Yeast UUG start, RAD54 branch)
COc1ccc(-c2cc(C(=O)N3CCCCCC3)no2)cc1OC	GSIS activator 51
CC1CCN(C(=O)CSc2ccc(-c3ccc4c(c3)OCCO4)nn2)CC1	none
COc1ccc(-c2cc(C(=O)N3CCCCCC3)no2)cc1	none
COc1ccc(-c2ccc(SCC(=O)N3CCCC3)nn2)cc1OC	GSIS activator 81 (no result: Casp6 inh, RAD52 inh)
CCC(=O)N1[C@@H]2Cn3c(cccc3=O)[C@H]1[C@@H](C(=O)NC1CCCCC1)[C@@H]2CO	none
COc1cc(/C=C2\SC(=Nc3ccc(Cl)c(C(=O)O)c3)NC2=O)c(Br)c(Br)c1O	Casp6 inh 35
COc1ccc(CC2(CO)COc3ccccc3C2=O)cc1 (configuration not stated)	none (no result: PglD inh, Yeast UUG start, RAD54 branch)
CC1(C)C=C2C(=NN(c3ccccc3)C(N)=C2C#N)CO1	Casp6 inh 84
CC1(C)Cc2c(C#N)c(N)n(-c3ccccc3)c(=S)c2CO1	none
COc1ccc(C(=O)n2nc(-c3ccco3)nc2N)cc1OC	none (no result: PglD inh, Yeast UUG start, RAD54 branch)
COC(=O)c1cc2occc2n1CC(=O)Nc1ccc(OC)c(OC)c1	none
Cc1ccc(NC(=O)c2ccccc2-c2ccccc2C(=O)O)cc1C	GSIS activator 45 (no result: PglD inh, Yeast UUG start, RAD54 branch)
CCC(CC)C(=O)OCC(=O)Nc1cccc(S(=O)(=O)N(C)c2ccccc2)c1	none (no result: Casp6 inh, PglD inh, Yeast UUG start, RAD54 branch)
CN(c1ccccc1)S(=O)(=O)c1cccc(C(=O)OCC(=O)Nc2ccc(C(N)=O)cc2)c1	Casp6 inh 40 (no result: GSIS activator)
O=Cc1c(Nc2cccc(C(F)(F)F)c2)nc2ccccn2c1=O	none
Cc1ccc(C)c(-n2c3nc(=O)[nH]c(=O)c-3cc3cc([N+](=O)[O-])ccc32)c1	Casp6 inh 50 (no result: GSIS activator)
COc1ccc(C(=O)NNC(=O)CSc2nnc(COc3ccccc3OC)n2C)cc1	GSIS activator 41 (no result: Casp6 inh, RAD52 inh)
CCn1c(COc2ccc(C)cc2)nnc1SCC(=O)NNC(=O)c1ccc(OC)cc1	none (no result: Casp6 inh, RAD52 inh)
CC(C)CN1C(=O)NC2(CCCc3ccccc32)C1=O (configuration not stated)	Casp6 inh 40
CC[C@@H](C)[C@H](NC(=O)Cc1c(C)c2cc3c(C)c(C)oc3c(C)c2oc1=O)C(=O)O	none
O=C(CCc1nc2sc3c(c2c(=O)[nH]1)CCCC3)NCCc1ccccc1	none
CCc1ccccc1NC(=O)CNC(=O)CCc1nc2sc3c(c2c(=O)[nH]1)CCCC3	Casp6 inh 36
COc1ccc(C(O)(CCC(C)C)C(CN2CCOCC2)c2ccccc2)cc1 (configuration not stated)	none
Cc1c(NC(=O)/C(C#N)=C/c2c(Oc3ccccc3)nc3ccccn3c2=O)c(=O)n(-c2ccccc2)n1C	GSIS activator 45 (no result: Casp6 inh, PglD inh, RAD52 inh, Yeast UUG start, RAD54 branch)
Cc1ccc(Oc2nc3ccccn3c(=O)c2/C=C(\C#N)C(=O)Nc2c(C)n(C)n(-c3ccccc3)c2=O)cc1	none (no result: Casp6 inh, PglD inh, RAD52 inh, Yeast UUG start, RAD54 branch)
Cc1cc(-c2ccccc2)n2nc(N)nc2n1	GSIS activator 49
Cc1cc(C)n2nc(N)nc2n1	none (no result: GSIS activator)
OC[C@H]1[C@@H]2c3ccccc3NC[C@@H]2N1CC1CCCCC1	none
COc1cc(C#CC#CCN2CCCCC2)ccc1O	GSIS activator 44 (no result: Casp6 inh, RAD52 inh)
COc1cc(C(=O)OCCN2CCCCC2)ccc1O	none (no result: Casp6 inh, RAD52 inh, GSIS activator)
COCCN(CC(=O)NC1CCCCC1)C(=O)/C=C/C(=O)c1ccc(OC)cc1O	GSIS activator 49 (no result: PglD inh, Yeast UUG start, RAD54 branch)
c1ccc(OCCOCCOc2ccccc2)cc1	none (no result: GSIS activator)
F[B-](F)(F)COc1ccccc1	GSIS activator 88
CCOc1cc(C)c(Cl)cc1S(=O)(=O)NCc1ccco1	Yeast UUG start 310 (no result: Casp6 inh, RAD52 inh, GSIS activator)
COC(=O)c1cccc(N2CCCC2=O)c1	none (no result: GSIS activator)
Nc1cccnc1Oc1ccc(F)cc1F	Casp6 inh 46 (no result: PglD inh, Yeast UUG start, RAD54 branch)
Nc1cccnc1Oc1ccc(F)cc1	Casp6 inh 52 (no result: PglD inh, GSIS activator, Yeast UUG start, RAD54 branch)
CCN(CC)S(=O)(=O)c1cccc(NC(=O)COC(=O)C2=COCCO2)c1	none
COc1ccc2c3c([nH]c2c1)[C@H](CO)NCC31CCN(C(=O)Nc2ccc(F)cc2F)CC1	RAD52 inh 76 (no result: Casp6 inh, PglD inh, Yeast UUG start, RAD54 branch)
COc1ccc2c3c([nH]c2c1)[C@@H](CO)NCC31CCN(C(=O)Nc2ccccc2F)CC1	RAD52 inh 68 (no result: Casp6 inh, PglD inh, Yeast UUG start, RAD54 branch)
COc1ccc2c3c([nH]c2c1)[C@H](CO)NCC31CCN(C(=O)Nc2ccc(F)cc2)CC1	none (no result: Casp6 inh, PglD inh, RAD52 inh, Yeast UUG start, RAD54 branch)
CCCCC/C=C\C/C=C\C/C=C\CCCCC(=O)O	Casp6 inh 40 (no result: GSIS activator)
CCCCCCCC/C=C\CCCCCCCC(=O)O	none (no result: PglD inh, GSIS activator, Yeast UUG start, RAD54 branch)
Cc1cccc(-c2cc3nc4c(c(N5CCCC(O)C5)n3n2)CCC4)c1 (configuration not stated)	GSIS activator 86 (no result: Casp6 inh, RAD52 inh)
N#CC1C(=O)Nc2cccnc21 (configuration not stated)	Casp6 inh 59
CCC(C)NC(=O)c1c(N)n(/N=C/c2ccccn2)c2nc3ccccc3nc12 (configuration not stated)	none (no result: GSIS activator)
CC(C)OCCCNC(=O)c1c(N)n(/N=C/c2ccccn2)c2nc3ccccc3nc12	GSIS activator 76 (no result: Casp6 inh, RAD52 inh)
O=C(/C=C(\Nc1cc(Cl)c(F)c(Cl)c1)c1ccccc1)c1ccccc1	GSIS activator 157 (no result: PglD inh, Yeast UUG start, RAD54 branch)
O=C(Nc1c(-c2ccc3c(c2)OCO3)[nH][nH]c1=O)c1ccccc1	Casp6 inh 45
O=C(C(=O)N1CCN(c2ccccc2F)CC1)c1cn(CC(=O)N2CCCC2)c2ccccc12	none
CC(C)(C)c1ccc(S(=O)(=O)N2CCN(CC(=O)N3CC(=O)Nc4ccccc43)CC2)cc1	none (no result: GSIS activator)
CC(=NNC(=S)Nc1ccc(C)cc1)c1ccccn1	Casp6 inh 40 (no result: PglD inh, Yeast UUG start, RAD54 branch)
C[C@H](CO)N1C[C@H](C)[C@H](CN(C)Cc2ccc3c(c2)OCO3)OCCCC[C@H](C)Oc2ccc(NS(=O)(=O)c3ccc(Cl)cc3)cc2C1=O	RAD52 inh 63
C[C@H]1CCCCO[C@@H](CN(C)Cc2ccc3c(c2)OCO3)[C@@H](C)CN([C@@H](C)CO)C(=O)c2cc(NS(=O)(=O)c3ccc(Cl)cc3)ccc2O1	RAD52 inh 55!
